# Read-outs that look alike come from different tables or passages of the source.
# Protein sequences, listed by entry. Tags and fused reporters are not part of them. Residues count along the entry.
# UniProt P56817, 46-501, species assumed: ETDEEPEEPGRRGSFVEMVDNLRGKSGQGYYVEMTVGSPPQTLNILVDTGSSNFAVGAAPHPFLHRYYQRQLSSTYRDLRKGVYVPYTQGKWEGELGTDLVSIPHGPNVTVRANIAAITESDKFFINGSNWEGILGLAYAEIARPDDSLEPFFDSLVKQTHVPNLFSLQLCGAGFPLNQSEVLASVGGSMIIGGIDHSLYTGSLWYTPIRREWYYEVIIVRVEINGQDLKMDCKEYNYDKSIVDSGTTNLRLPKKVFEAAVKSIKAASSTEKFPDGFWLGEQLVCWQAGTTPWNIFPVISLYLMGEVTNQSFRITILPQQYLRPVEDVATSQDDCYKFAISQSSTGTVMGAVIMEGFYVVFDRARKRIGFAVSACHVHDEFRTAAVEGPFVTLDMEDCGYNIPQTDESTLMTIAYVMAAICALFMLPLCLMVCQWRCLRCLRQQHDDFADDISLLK
# Biological target: Beta Secretase enzyme (BACE) (Homo sapiens, UniProt P56817)
# Assay: In vitro enzymatic BACE FRET (fluorescence resonance energy transfer) assay
# Assay type: biochemical
# Details: average IC50, enzyme assay
Compound,IC50 (BACE 1 FRET assay (uM)),IC50 (read-out: BACE 1 FRET assay)
"NC1=N[C@@]2(CO1)c1cc(-c3cccnc3F)ccc1Oc1cnc(N3CC[C@H](F)C3)cc12 [Example 133, (S)-7-(2-fluoropyridin-3-yl)-3-((S)-3-fluoropyrrolidin-1-yl)-5′H-spiro[chromeno[2,3-c]pyridine-5,4′-oxazol]-2′-amine]",0.0027 µM,–
"NC1=N[C@@]2(CO1)c1cc(-c3cccnc3F)ccc1Oc1cnc([C@@H]3CCCCO3)cc12 [Example 374, (5S)-7-(2-fluoro-3-pyridinyl)-3-((2S)-tetrahydro-2H-pyran-2-yl)spiro[chromeno[2,3-c]pyridine-5,4′-[1,3]oxazol]-2′-amine]",0.0185 µM,–
"NC1=N[C@@]2(CO1)c1cc(-c3cccnc3F)ccc1Oc1cnc([C@H]3CCCCO3)cc12 [Example 375, (5S)-7-(2-fluoro-3-pyridinyl)-3-((2R)-tetrahydro-2H-pyran-2-yl)spiro[chromeno[2,3-c]pyridine-5,4′-[1,3]oxazol]-2′-amine]",0.0022 µM,–
"NC1=N[C@@]2(CO1)c1cc(-c3cccnc3F)ccc1Oc1cnc(N3CC[C@@H](F)C3)cc12 [Example 416, (5S)-7-(2-fluoro-3-pyridinyl)-3-((3R)-3-fluoro-1-pyrrolidinyl)spiro[chromeno[2,3-c]pyridine-5,4′-[1,3]oxazol]-2′-amine]",0.0005 µM,–
"NC1=N[C@]2(CS1)c1cc(-c3cccnc3F)ccc1Oc1c2cc(-c2ccnc(F)c2)nc1F [Example 997, (5R)-1-fluoro-7-(2-fluoro-3-pyridinyl)-3-(2-fluoro-4-pyridinyl)spiro[chromeno[2,3-c]pyridine-5,4′-[1,3]thiazol]-2′-amine]",–,0.0175 µM

# Reference: patent US8883782B2, “Spiro-tetracyclic ring compounds as beta-secretase modulators and methods of use” (Amgen Inc., priority 2010, dated 2014)
